Measured values taken from patent publication US20110269680A1 (PANACEA BIOTEC LIMITED, priority 2008, published 2011).

Amino acid sequences for entries named in this document (tags omitted).
UniProt P27487, whole entry, species assumed: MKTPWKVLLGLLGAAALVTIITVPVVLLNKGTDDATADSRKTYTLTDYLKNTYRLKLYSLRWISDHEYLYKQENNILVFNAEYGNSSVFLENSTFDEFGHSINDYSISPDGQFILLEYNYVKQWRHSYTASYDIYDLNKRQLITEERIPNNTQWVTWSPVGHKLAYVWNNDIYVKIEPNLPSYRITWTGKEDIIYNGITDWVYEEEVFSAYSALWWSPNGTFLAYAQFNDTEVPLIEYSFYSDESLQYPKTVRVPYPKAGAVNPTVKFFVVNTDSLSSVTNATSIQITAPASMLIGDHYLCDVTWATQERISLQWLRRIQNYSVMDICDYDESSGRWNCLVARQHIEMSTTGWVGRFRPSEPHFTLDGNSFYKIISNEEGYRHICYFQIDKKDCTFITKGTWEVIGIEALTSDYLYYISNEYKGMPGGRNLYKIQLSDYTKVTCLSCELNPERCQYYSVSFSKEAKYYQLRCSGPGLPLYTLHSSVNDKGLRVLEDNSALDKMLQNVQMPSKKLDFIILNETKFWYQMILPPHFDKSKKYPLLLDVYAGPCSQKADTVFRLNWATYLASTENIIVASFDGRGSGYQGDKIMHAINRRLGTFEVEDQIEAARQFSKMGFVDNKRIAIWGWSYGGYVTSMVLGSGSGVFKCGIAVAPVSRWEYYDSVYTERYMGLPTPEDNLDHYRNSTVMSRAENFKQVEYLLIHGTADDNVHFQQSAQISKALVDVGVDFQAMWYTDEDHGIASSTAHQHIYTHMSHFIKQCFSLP

Biological target: T1, DPP-IV (Homo sapiens, UniProt P27487)
T1 construct: purchased Sigma-Aldrich
Test: DPP-IV resistant assay
Type: in vitro ADME
Conditions: 20 μM peptide, 60 mU/2 ml DPP-IV, room temperature (22-24° C.), 20 mM Tris HCl pH 8.0, RP-HPLC
Protocol: 20 μM of peptides of the present invention (Sequence IDs—01, 02, 03, 04, 05, 06, 11, 12 and 13) were incubated with 60 mU/2 ml of DPP-IV (Sigma-Aldrich) enzyme at room temperature (22-24° C.) in 20 mM Tris HCl buffer, pH 8.0. The aliquots were analyzed for the amount of undegraded peptide concentration at different time intervals by RP-HPLC. The peak area integration was used to determine the amount of undegraded peptide (U.S. Pat. No. 7,067,488). T1/2 of each peptide was determined from the graph plotted between peak area of undegraded peptide vs. time. The peak area of DPP-IV untreated peptide in above mentioned buffer condition of same concentration was considered as time zero. […]

## GLP-1(7-37) [GLP-1(7-37) parent, reference compound]
  T1/2 in Hrs: 2.84 h
